Test results: ChEMBL document CHEMBL1123975, “2-Phenylpyrroles as conformationally restricted benzamide analogues. A new class of potential antipsychotics. 2” (J Med Chem, 1988)

Protein sequences, listed by entry. Tags and fused reporters are not part of them.
UniProt P61169, whole entry: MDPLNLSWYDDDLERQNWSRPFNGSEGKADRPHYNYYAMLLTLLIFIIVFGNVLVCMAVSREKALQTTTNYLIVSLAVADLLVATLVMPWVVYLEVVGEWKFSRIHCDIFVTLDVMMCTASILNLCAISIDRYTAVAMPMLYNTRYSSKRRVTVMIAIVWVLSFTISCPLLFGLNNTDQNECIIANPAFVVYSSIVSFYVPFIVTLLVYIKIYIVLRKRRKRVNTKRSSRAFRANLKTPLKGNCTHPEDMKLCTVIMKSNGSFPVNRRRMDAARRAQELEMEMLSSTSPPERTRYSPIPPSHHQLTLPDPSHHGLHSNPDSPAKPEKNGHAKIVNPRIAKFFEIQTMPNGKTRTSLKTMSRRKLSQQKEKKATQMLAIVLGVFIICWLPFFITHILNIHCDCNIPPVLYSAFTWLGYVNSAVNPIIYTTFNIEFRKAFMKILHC

Target: D(2) dopamine receptor (Rattus norvegicus, UniProt P61169)
Assay: Displacement of [3H]-Spiperone from Dopamine receptor D2 in rat striatum

Ki: 4.3 nM
Structure (SMILES): COc1ccccc1N1CCN(CCNC(=O)c2ccc(F)cc2)CC1
